Measured values as given in ChEMBL document CHEMBL1152778, “Design, synthesis, and biological evaluation of (2R,alphaS)-3,4-dihydro-2-[3-(1,1,2,2-tetrafluoroethoxy)phenyl]-5-[3-(trifluoromethoxy)-phenyl]-alpha-(trifluoromethyl)-1(2H)-quinolineethanol as potent and orally active cholesteryl ester transfer protein inhibitor” (J Med Chem, 2009).

Columns and labels:
[1] = biological target: T1, Cholesteryl ester transfer protein (Homo sapiens, UniProt P11597); test: Inhibition of CETP-mediated transfer of [3H]cholesteryl ester from HDL donar particles to LDL acceptor particles in presence of buffer
T1 sequence (P11597 whole entry): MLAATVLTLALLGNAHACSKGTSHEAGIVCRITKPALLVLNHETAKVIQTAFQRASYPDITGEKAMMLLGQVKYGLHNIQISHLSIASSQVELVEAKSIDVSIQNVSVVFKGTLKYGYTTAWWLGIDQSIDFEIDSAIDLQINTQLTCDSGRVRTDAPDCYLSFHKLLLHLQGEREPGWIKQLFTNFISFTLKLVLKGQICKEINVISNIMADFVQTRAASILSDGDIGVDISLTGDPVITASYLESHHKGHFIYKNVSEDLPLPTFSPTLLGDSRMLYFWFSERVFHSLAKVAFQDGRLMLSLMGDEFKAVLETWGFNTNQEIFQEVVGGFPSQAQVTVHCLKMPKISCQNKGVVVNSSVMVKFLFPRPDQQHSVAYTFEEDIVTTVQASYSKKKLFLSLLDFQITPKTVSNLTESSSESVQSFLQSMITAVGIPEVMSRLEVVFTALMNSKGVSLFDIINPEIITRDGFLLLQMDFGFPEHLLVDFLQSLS

[2] = biological target: T1, Cholesteryl ester transfer protein; test: Inhibition of CETP-mediated transfer of [3H]cholesteryl ester from HDL donar particles to LDL acceptor particles in presence of human serum
[3] = biological target: T1, Cholesteryl ester transfer protein; test: Inhibition of CETP-mediated transfer of [3H]cholesteryl ester from HDL donar particles to LDL acceptor particles

CCc1cc(Oc2cccc(N(Cc3cccc(OC(F)(F)C(F)F)c3)CC(O)C(F)(F)F)c2)ccc1Cl (stereo not drawn)
IC50 [1]: 3 nM | IC50 [2]: 59 nM | IC50 [3]: 3 nM
